# Measured affinities in a library of Ab-95 light chain variants

Antigen: PDVDLGDISGINAS, a 14-residue peptide of the SARS-CoV-2 spike HR2 region.

Each scFv is VH, a (GGGGS)3 linker, VL, as in the parent Ab-95, and differs from it in the CDRs of the light chain only.
VH: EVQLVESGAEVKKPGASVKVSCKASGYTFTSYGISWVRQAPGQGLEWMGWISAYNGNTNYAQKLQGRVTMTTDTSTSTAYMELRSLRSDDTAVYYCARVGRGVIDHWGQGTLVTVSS
VL: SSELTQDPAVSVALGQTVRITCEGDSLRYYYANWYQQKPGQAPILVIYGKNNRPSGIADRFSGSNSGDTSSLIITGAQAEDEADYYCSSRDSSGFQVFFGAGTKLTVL

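The starting antibody came from a phage panning campaign against this peptide. AAYL52 was designed without a model: most single CDR substitutions and a random sample of double and triple ones. In AlphaSeq, yeast of one mating type display the scFv and yeast of the other type display the target. Binding brings cells together so that they mate, and sequencing counts the barcode pairs among the diploids. Each replicate has its own calibration line, from reference interactions of the BCL2 family. The assay was run in three technical replicates.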

Changes read parent residue, position, new residue, counted from the first residue of the VL shown. Numbers give log10(Kd / nM), so 0 is 1 nM and 3 is 1 µM. Smaller is tighter. "nd" marks a missing value. The strain was present, yet no cells mated with the target were sequenced in that replicate, which points to weak or no binding. Parent in this assay: reference entry 2.31, copy in this library 2.25.

changes,"log10 Kd, replicates",empty controls
S26D+S89L+V97W,2.88 3.40 3.16,2/9 (3.81)
Y31A+A32T+D91E,3.34 nd nd,0/9
L27R+Y31R+N52F,nd 3.38 2.77,2/9 (3.03)
S26N+V97M+F98I,2.61 2.90 2.71,2/9 (3.87)
P54V+S89V+S93G,3.64 nd 4.69,2/9 (4.32)
S55D,1.77 1.82 0.95,5/9 (3.66)
G24M+Y30K+S92Q,3.47 3.03 3.86,1/9 (4.16)
N52F+R90E+S92A,nd nd 3.00,0/9
L27M+Y29N+N33V,3.57 3.27 3.81,5/9 (3.93)
N33Q+R53L+V97M,3.61 nd nd,4/9 (3.73)
S93M+F95Y+V97K,nd nd nd,0/9
Y30C+D91M+V97D,nd 4.04 nd,3/9 (3.70)
G49F+S88E,nd nd nd,0/9
D25L+G49P+V97R,nd nd nd,1/9 (3.05)
R53C+F95A+V97F,3.61 5.47 nd,0/9
Y30T+A32S+G49K,3.85 nd nd,1/9 (4.47)
G24H+A32D+N51M,3.62 nd nd,2/9 (3.36)
E23M+G94L,2.07 2.07 2.35,4/9 (3.77)
Y30C+K50L+S89R,2.59 3.00 4.19,1/9 (4.13)
E23G+G49I+S92A,4.14 nd nd,3/9 (3.95)
Y29C+A32M+S92H,4.77 3.50 nd,6/9 (3.86)
Y31D+N33L+S92D,2.61 3.03 2.96,5/9 (4.17)
N33T+K50L+S89Q,5.34 nd nd,1/9 (3.92)
Y29R+S88M+G94Q,nd 3.37 2.94,3/9 (4.23)
L27C+Y31M+A32V,3.23 nd 4.22,3/9 (4.19)
L27H+Y30K+N33M,nd nd 3.46,3/9 (4.24)
K50I+G94L+F98L,nd nd nd,1/9 (5.29)
Y29K+K50Y+F98D,2.97 3.32 3.60,3/9 (4.37)
G24Q+Y29A+G49K,3.45 nd nd,1/9 (3.40)
S89P+S93F+V97F,2.38 2.26 2.76,2/9 (4.07)
Y29W+K50Q+R90M,3.31 nd 4.40,2/9 (3.68)
S26H+S88I+Q96T,3.77 4.66 3.51,3/9 (3.32)

The first 2 variants above that were never detected:

changes,"log10 Kd, replicates",empty controls
S93M+F95Y+V97K,nd nd nd,0/9
G49F+S88E,nd nd nd,0/9

As a blank, each scFv also met three strains without target: over library AAYL52, 28% of these pairings were detected, typically at 3.91 and seldom below 2.90. The control count says in how many pairings with the empty strains this scFv gave a signal, with their mean in brackets.

Data: MIT Lincoln Laboratory AlphaSeq set, Engelhart et al. 2022, doi:10.1038/s41597-022-01779-4, as distributed in FLAb.